{"sequences": {"note": "Amino acid sequences for entries named in this document (tags omitted).", "UniProt P21554, whole entry": "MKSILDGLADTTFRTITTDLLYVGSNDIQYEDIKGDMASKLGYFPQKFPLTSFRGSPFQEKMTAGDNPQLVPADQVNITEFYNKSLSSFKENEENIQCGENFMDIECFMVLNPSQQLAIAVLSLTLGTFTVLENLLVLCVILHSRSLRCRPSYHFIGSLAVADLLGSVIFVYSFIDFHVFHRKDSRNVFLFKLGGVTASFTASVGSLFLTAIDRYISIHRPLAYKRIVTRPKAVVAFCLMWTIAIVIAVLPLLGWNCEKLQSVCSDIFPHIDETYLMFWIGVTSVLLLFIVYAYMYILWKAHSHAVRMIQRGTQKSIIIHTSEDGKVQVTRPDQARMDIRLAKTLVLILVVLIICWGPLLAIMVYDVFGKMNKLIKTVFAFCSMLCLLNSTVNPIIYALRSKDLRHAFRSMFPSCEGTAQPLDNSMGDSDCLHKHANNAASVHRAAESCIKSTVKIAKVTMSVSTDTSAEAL", "UniProt P34972, whole entry": "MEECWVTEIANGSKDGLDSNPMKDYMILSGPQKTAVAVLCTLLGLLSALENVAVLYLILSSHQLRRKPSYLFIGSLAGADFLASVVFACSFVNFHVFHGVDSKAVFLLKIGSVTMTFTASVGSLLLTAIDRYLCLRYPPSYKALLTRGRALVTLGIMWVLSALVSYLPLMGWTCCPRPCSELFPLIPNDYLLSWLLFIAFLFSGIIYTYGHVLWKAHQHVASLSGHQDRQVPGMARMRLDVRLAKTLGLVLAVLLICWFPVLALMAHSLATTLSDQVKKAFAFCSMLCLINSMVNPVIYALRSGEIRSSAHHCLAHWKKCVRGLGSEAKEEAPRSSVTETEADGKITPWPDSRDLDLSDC"}, "source": "patent US20250326733A1", "about": "“A NEW ROUTE FOR SY[…] CHIRAL CANNABINOIDS FROM COUMARINS” (University of Florida Research Foundation, Inc., priority 2021, published 2025)", "key": {"hCB1R [1]": {"biological_target": "T1, hCB1R (Homo sapiens, UniProt P21554)", "assay": "Binding affinity at human cannabinoid receptor 1"}, "hCB2R [2]": {"biological_target": "T2, hCB2R (Homo sapiens, UniProt P34972)", "assay": "Binding affinity at human cannabinoid receptor 2"}, "hCB1R [3]": {"biological_target": "T1, hCB1R", "assay": "Functional activity (agonism), TRUPATH assay of Gαiβ3γ9 protein activation", "type": "cell-based"}, "hCB2R [4]": {"biological_target": "T2, hCB2R", "assay": "Functional activity (agonism), TRUPATH assay of Gαiβ3γ9 protein activation", "type": "cell-based"}}, "note": "Read-outs that look alike come from different tables or passages of the source.", "data": [{"smiles": "CCCCCCC(C)(C)c1cc(O)c(-c2c(CO)cccc2C(C)C)c(OC)c1", "values": [{"measurement": "Ki", "setting": "hCB1R [1]", "value": 2.14, "unit": "µM"}, {"measurement": "pKi ± SEM", "setting": "hCB1R [1]", "value": "5.67 ± 0.0821"}, {"measurement": "selectivity for hCB2R over hCB1R", "setting": "hCB2R [2]", "value": 4.8, "unit": "fold"}, {"measurement": "Ki", "setting": "hCB2R [2]; hCB2R", "value": 0.447, "unit": "µM"}, {"measurement": "pKi ± SEM", "setting": "hCB2R [2]; hCB2R", "value": "6.35 ± 0.0755"}, {"measurement": "CB1/CB2", "setting": "hCB2R [2]; ratio of Ki hCB1R / hCB2R", "value": 4.8}, {"measurement": "agonism / efficacy (in words)", "setting": "hCB1R [3]", "value": "not at hCB1R at concentrations up to 31.6 μM"}, {"measurement": "agonism / efficacy (in words)", "setting": "hCB2R [4]", "value": "exhibited agonism"}, {"measurement": "agonism / efficacy (in words)", "setting": "hCB2R [4]; listed as rac-axCBN-2", "value": "selective CB2R agonist"}, {"measurement": "Emax", "setting": "hCB2R [4]; mean ± SEM, n >= 3", "value": "0.0839 ± 0.0176"}, {"measurement": "pEC50", "setting": "hCB2R [4]; mean ± SEM, n >= 3", "value": "7.54 ± 0.381"}]}]}
